Measurements: US20250318524A1, “ANTIMICROBIAL COATING COMPOSITION AND METHOD OF USE THEREOF” (priority 2024, published 2025)

Assay: Selection of antimicrobial agents: solubility in aqueous solution, stability, compatibility with the coating composition

## chlorhexidine acetate
  compatibility with formulation: compatibility with formulation
  solubility in water: good water solubility
